Test results reported in patent publication US20110171294A1, “Enzyme composition and application thereof in the treatment of pancreatic insufficiency” (DSM IP ASSETS B.V., priority 2008, published 2011).

Test system: Sodium caseinate
Assay: Casein hydrolysis under simulated stomach conditions (visual impression, di-/tripeptides, free amino acids)
Type: biochemical
Conditions: pH 4.0, 37 degrees C.
Text: To quantify the level of free amino acids in the supernatants of the casein hydrolysates prepared according the procedure outlined in Example 4, the following method was used. By applying the conventional UV detection for monitoring free amino acids after pre-column AccQ-Tag derivatization, a serious interference with small peptides occurs. In 2006, Waters (Milford Mass., US) introduced the AccQ-Tag®ultra method. In this method, 6-aminoquinolyl-N-hydroxysuccinimidyl carbamate (AQC) is used as a reagent for the quantitative conversion of primary and secondary amino acids into the corresponding carbamide derivatives. In our quantitative UPLC/tandem MS based method, pre-column AccQ-Tag®ultra ultra derivatization circumvents ion suppression effects from co-eluting endogeneous dipeptides. LC-MS/MS was applied for monitoring diagnostic ions of the free amino acid derivatives, i.e. the protonated carbamide derivative and one daughter ion (m/z 171), that result from the loss of the amino acid from the corresponding carbamide derivative. By monitoring the above-mentioned MS/MS transition, free amino acids are selectively monitored, also in the presence of peptides from the hydrolysate.
To measure the free amino acids in the supernatants of the casein hydrolysates prepared according to Example 4, the following protocol for sample preparation and derivatization was used. • Dissolve 40-300 mg of protein hydrolysate in 50 ml 0.1 N HCl • Transfer 100 μl of this solution into a vial • Add 100 ul of internal standard (IS) solution (containing 1 mg of each of isotope-labelled amino acids per 50 ml) • Mix vigorously • Transfer 10 μl of this sample/IS solution into a test tube • Add 70 μl borate buffer (from the Waters AccQ-Tag ultra reagent package) and mix • Add 20 μl reagent solution (from the Waters AccQ-Tag ultra reagent package) and mix immediately • Transfer the derivative solution to an injection vial • Heat the vial at 55° C. for 10 minutes and mix • Inject 1 μl into the UPLC system.
Subsequent UPLC-MS/MS analyses were performed on an Ultra high-Pressure Liquid Chromatograph (UPLC) combined with a Xevo TQ mass spectrometer from Waters under the following conditions.
We determined total di- and tripeptides by quantitative LC/MS method in which we took advantage of a pre-column derivatization and exact mass analysis using a LTQ orbitrap mass spectrometer. […]
Using a wide variety of dipeptide standards, first the deviation of the proton affinity (expressed in peak area) was determined before/after derivatization. A total of 20 different dipeptides, selected on the basis of their hydrophobicities, were used and after subsequent derivatization and LC/MS analysis the peak area per pMole dipeptide was calculated. […]

[1] = supernatant after 90 minutes, 0.25 mg/ml of each enzyme

“Pepsin: gastric aspartic endoprotease (EC 3.4.23.1) from porcine stomach mucosa, Sigma” was tested, and the “Weight % of soluble casein present in the form of either free amino acids, di- or tri-peptides” value (sum of Tables 3 and 4, 90 minutes) was 10.5 Weight %, the “Weight % of soluble casein present in the form of free amino acids” value [1] was 0.94 Weight % and the “Weight % of soluble casein present in the form of: dipeptides” value [1] was 1.0 Weight %. For the same substance, the “Weight % of soluble casein present in the form of: tripeptides” value [1] was 8.6 Weight %.
